The test deals with Dual specificity mitogen-activated protein kinase kinase 1 (Homo sapiens, UniProt Q02750).

Chains of the proteins cited; added tags and fusions are not shown.
UniProt Q02750, whole entry: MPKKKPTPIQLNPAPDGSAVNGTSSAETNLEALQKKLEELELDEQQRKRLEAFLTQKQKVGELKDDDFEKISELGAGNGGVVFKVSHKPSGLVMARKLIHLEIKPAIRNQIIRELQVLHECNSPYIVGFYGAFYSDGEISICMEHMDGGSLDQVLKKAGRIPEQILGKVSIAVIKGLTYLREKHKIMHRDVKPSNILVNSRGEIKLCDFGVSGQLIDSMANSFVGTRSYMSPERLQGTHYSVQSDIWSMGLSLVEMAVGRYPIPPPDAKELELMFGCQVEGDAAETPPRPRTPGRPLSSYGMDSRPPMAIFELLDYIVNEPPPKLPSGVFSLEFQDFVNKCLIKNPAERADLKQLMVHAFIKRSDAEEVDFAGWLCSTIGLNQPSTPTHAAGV

A word on the IC50: it is the concentration at which inhibition is half-maximal. Compound `Cn1c(=O)cc(Nc2ccc(I)cc2F)c2c(=O)n(CCO)cnc21` returned an IC50 of 9.8 nM. Compound `Cn1c(=O)c(F)c(Nc2ccc(Br)cc2F)c2c(=O)n(C[C@@H](O)CO)cnc21` displayed an IC50 of 16 nM.

For the origin of these results see ChEMBL document CHEMBL1681690, “Discovery of TAK-733, a potent and selective MEK allosteric site inhibitor for the treatment of cancer” (Bioorg Med Chem Lett, 2011).
